Source: PubChem BioAssay
This is a sample that favours compounds with a hit; in the whole collection about 2.5% have one here.
rTrxR1 inhibitor = blocks rat thioredoxin reductase 1; recombinant rTrxR1, NADPH fluorescence consumption, selenite substrate; Potency, µM (highest dose often 114 µM), without a hit: top-dose activity change, negative = inhibition, actives largely listed as inhibitors; 1% of 390,000 active; AID 588453; note: potency is the fitted concentration of half-maximal effect; % is set by controls: 0 for no effect and ±100 for the full control effect; nearly all actives have a fitted effect of over 65% in size
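Rat TrxR1 (90 nM in the dispensed reagent) was pre-reduced with 400 uM NADPH for 5 min at room temperature, then incubated with compound for 15 min. After 400 uM selenite was added, NADPH fluorescence (Ex 340/Em 450 nm) was followed for 8 min.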
miR-21 reporter = raises the signal of a miR-21 reporter | HeLa miR-21 FLuc reporter, luciferase, 48 h | Potency, µM (doses to about 38.3 µM), for the others: at the highest dose reporter change, positive = more light | 340,000 tested, under 10 active | AID 2288; active = well fitted rising curve with a large enough effect; inconclusive = small, poorly fitted or top-dose-only effect; inactive = no such curve, though single readings can be large or run the other way;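 also: % of control where 0% means no effect; miR-21 action dims this reporter so a rising signal means less miR-21 action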
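Luminescence from a firefly luciferase reporter carrying a miR-21 binding site downstream, stably expressed under a CMV promoter in HeLa cells that make miR-21 endogenously, reports miRNA modulation after 48 h compound exposure up to approximately 40uM final.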
ClpP mod = qHTS Assay for Activators of ClpP; Potency, µM (highest dose often 57.5 µM), for inactives: top-dose activity change, negative = active; ATP-dependent Clp protease proteolytic subunit (Bacillus subtilis (strain 168)), P80244; 1.9% of 340,000 active; AID 651965, 2013; purified B. subtilis ClpP, FRET peptide cleavage, 20 min; active = well fitted falling curve with a large enough effect; inconclusive = small, poorly fitted or top-dose-only effect; inactive = no such curve, though single readings can be large or run the other way; note: potency is the fitted concentration of half-maximal effect; the source files actives as falling curves though it sought activators and does not explain the sign; nearly all actives have a fitted effect of over 65% in size
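ClpP 10 microg/mL final, pH 8 Tris/KCl buffer with BSA, glycerol, Tween-20; compound pinned in; FRET-FV substrate; RT 20 min; Ex320/Em430; ΔFRET vs ADEP 5.8 microM, DMSO, no enzyme.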
Anesthetic bind = candidate novel general anesthetic via apoferritin binding; apoferritin/1-aminoanthracene competitive binding, fluorescence; Potency, µM (doses to about 77.5 µM), for the others: at the top dose activity change, negative = displacement, most hits filed as inhibitors; 0.074% of 350,000 active; AID 485281; note: potency is the fitted concentration of half-maximal effect; % is set by controls: 0 for no effect and ±100 for the full control effect; nearly all actives have a fitted effect of over 20% in size
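Horse-spleen apoferritin (10 uM) in 50% saturated 1-aminoanthracene in PBS was incubated 10 min at room temperature with compound. Fluorescence (ex 380, em 535 nm) was normalized to free and bound 1-AMA, with concentration-response fitted by a four-parameter Hill equation.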
TrxR1 substrate = is turned over as a substrate by rat TrxR1. O89049. purified TrxR1 substrate turnover, NADPH consumption readout. Potency, µM (top dose mostly 114 µM), without a hit: top-dose activity change, negative = substrate turnover. 0.01% of 390,000 active; note: potency is the fitted concentration of half-maximal effect; % is set by controls: 0 for no effect and ±100 for the full control effect; nearly all actives have a fitted effect of over 50% in size
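Rat TrxR1, dispensed at 90 nM, was prereduced with 400 uM NADPH (final) for 5 min at ~22 deg C, then incubated with compound 15 min before 400 uM selenite. A first-read NADPH fluorescence drop versus no-compound background flagged substrates.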
Active calls of the source: *; ! = repeats disagree; [ ] = another dose, or the depositor's remark. Unless noted, calls come from the whole dose curve; as a rule, active = well fitted curve in the direction sought with a large enough effect; inconclusive = small, poorly fitted or top-dose-only effect, or another doubt; inactive = no such curve, though single readings can be large; an effect the other way counts as inactive or inconclusive.

Amino acid sequences for entries named in this document (tags omitted).
ATP-dependent Clp protease proteolytic subunit (Bacillus subtilis (strain 168)), P80244, UniProt P80244, whole entry, looked up: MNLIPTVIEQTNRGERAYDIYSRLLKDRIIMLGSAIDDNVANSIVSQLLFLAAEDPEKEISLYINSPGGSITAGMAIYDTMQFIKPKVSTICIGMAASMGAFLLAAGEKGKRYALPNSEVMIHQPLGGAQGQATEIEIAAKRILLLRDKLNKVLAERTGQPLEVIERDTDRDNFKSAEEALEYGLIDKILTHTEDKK

Start of the data: the first 3 compounds, to show the layout:
CCN(CC)S(=O)(=O)c1cc(-c2ccc(=O)n(C(C)C(=O)Nc3cccc(C#N)c3)n2)ccc1C (configuration not stated) was read as rTrxR1 inhibitor 14.1%, miR-21 reporter 0.1%, ClpP mod -5.1%, Anesthetic bind inconclusive and TrxR1 substrate 6.2%.
CCOc1ccc(C(=O)NCC(=O)OCc2c(F)cccc2Cl)cc1 was read as rTrxR1 inhibitor -7.7%, miR-21 reporter -7.1%, ClpP mod 28.2µM*, Anesthetic bind -2.2% and TrxR1 substrate -10.1%.
Screening CC1(C)OC(=O)C2(Cc3ccccc3N3CCCC32)C(=O)O1 (configuration not stated) returned rTrxR1 inhibitor 17.1% and TrxR1 substrate 17.3%.

The list itself, from the first entry:
CCN(CC)S(=O)(=O)c1cc(-c2ccc(=O)n(C(C)C(=O)Nc3cccc(C#N)c3)n2)ccc1C (configuration not stated) was read as rTrxR1 inhibitor 14.1%, miR-21 reporter 0.1%, ClpP mod -5.1%, Anesthetic bind inconclusive and TrxR1 substrate 6.2%.
CCOc1ccc(C(=O)NCC(=O)OCc2c(F)cccc2Cl)cc1 was read as rTrxR1 inhibitor -7.7%, miR-21 reporter -7.1%, ClpP mod 28.2µM*, Anesthetic bind -2.2% and TrxR1 substrate -10.1%.
Screening CC1(C)OC(=O)C2(Cc3ccccc3N3CCCC32)C(=O)O1 (configuration not stated) returned rTrxR1 inhibitor 17.1% and TrxR1 substrate 17.3%.
For CCCC(=O)N1CCc2cc(OC)c(OC)cc2C1c1cc2cc3c(cc2[nH]c1=O)OCO3 (configuration not stated) the results were rTrxR1 inhibitor -14.0%, ClpP mod inconclusive and TrxR1 substrate 20.5%.
`COc1cc2c(cc1OC)C(c1cc3cc(OC)c(OC)cc3[nH]c1=O)N(C(=O)C1CC1)CC2` (configuration not stated) gave rTrxR1 inhibitor 10.4%, miR-21 reporter -16.0%, ClpP mod 28.2µM*, Anesthetic bind 35.5% and TrxR1 substrate 26.0%.
`Cc1cccc(N2C(=O)C(Cl)=C(Nc3c(C)n(C)n(-c4ccccc4)c3=O)C2=O)c1C` gave rTrxR1 inhibitor 22.4µM*, miR-21 reporter -10.5%, ClpP mod -1.4%, Anesthetic bind -17.1% and TrxR1 substrate 5.6%.
`Cc1ccc(N2C(=O)C(Cl)=C(Nc3c(C)n(C)n(-c4ccccc4)c3=O)C2=O)cc1` gave rTrxR1 inhibitor 17.8µM*, miR-21 reporter -5.0%, ClpP mod -1.1%, Anesthetic bind -12.8% and TrxR1 substrate 8.1%.
For Cc1ccc(Nc2nc3ccccc3nc2Nc2c(C)n(C)n(-c3ccccc3)c2=O)cc1 the results were rTrxR1 inhibitor inconclusive, miR-21 reporter -4.0%, ClpP mod 1.1%, Anesthetic bind -3.9% and TrxR1 substrate -9.1%.
For COc1ccc(Br)cc1CNC(=O)C1CCN(c2nnc(-n3cccc3CNc3ccc(C)cc3)s2)CC1 the results were rTrxR1 inhibitor -19.3%, miR-21 reporter -0.9%, ClpP mod -2.6%, Anesthetic bind 7.1% and TrxR1 substrate 3.9%.
Screening CCN(CC(=O)Nc1cc(Cl)ccc1C)C(=O)CCOc1ccccc1C returned rTrxR1 inhibitor 39.8µM*, miR-21 reporter -2.3%, ClpP mod -1.7%, Anesthetic bind -4.5% and TrxR1 substrate 3.9%.
For O=C(/C=C/c1ccco1)N(Cc1cccc(Cl)c1)C1CCS(=O)(=O)C1 (configuration not stated) the results were rTrxR1 inhibitor 8.91µM*, miR-21 reporter -4.9%, Anesthetic bind 5.5% and TrxR1 substrate 6.6%[57.1 µM].
Screening O=C(/C=C/c1ccco1)N(Cc1cccc(F)c1)C1CCS(=O)(=O)C1 (configuration not stated) returned rTrxR1 inhibitor 35.5µM*, miR-21 reporter -4.0%, ClpP mod 1.3%, Anesthetic bind -8.7% and TrxR1 substrate -4.0%.
`O=C(/C=C/c1ccco1)N(Cc1ccc(F)cc1)C1CCS(=O)(=O)C1` (configuration not stated) gave rTrxR1 inhibitor 44.7µM*, miR-21 reporter 2.5%, Anesthetic bind -1.1% and TrxR1 substrate -6.1%.
For O=C(/C=C/c1ccco1)N(Cc1ccccc1)C1CCS(=O)(=O)C1 (configuration not stated) the results were rTrxR1 inhibitor -75.8%, miR-21 reporter -0.2%, Anesthetic bind -1.2% and TrxR1 substrate 5.8%[11.4 µM].
For O=C(/C=C/c1ccccc1)N(Cc1cccc(Cl)c1)C1CCS(=O)(=O)C1 (configuration not stated) the results were rTrxR1 inhibitor 23.2%[11.4 µM], miR-21 reporter 0.0%, Anesthetic bind -2.5% and TrxR1 substrate -20.3%[11.4 µM].
O=C(/C=C/c1ccco1)N(Cc1cccc(Br)c1)C1CCS(=O)(=O)C1 (configuration not stated) was read as rTrxR1 inhibitor 10µM*, miR-21 reporter -5.5%, ClpP mod -0.3%, Anesthetic bind -16.7% and TrxR1 substrate 8.6%[57.1 µM].
Screening Cc1ccc(NC(=O)c2c(C)oc3ccc(O)c(CN4CCCCCC4)c23)c(C)c1 returned rTrxR1 inhibitor -8.6%, miR-21 reporter 22.2%, ClpP mod 0.3%, Anesthetic bind 2.4% and TrxR1 substrate 1.9%.
For O=S(=O)(c1cccc(Cl)c1)N1CCN(c2nc(-c3cccs3)nc3ccccc23)CC1 the results were rTrxR1 inhibitor -2.6%, ClpP mod 14.1µM*! and TrxR1 substrate 3.3%.
Cc1ccc(S(=O)(=O)N2CCN(c3nc(-c4ccncc4)nc4ccccc34)CC2)cc1 was read as rTrxR1 inhibitor 44.7µM*, ClpP mod 1.8% and TrxR1 substrate 4.5%.
`Cc1ccc(S(=O)(=O)N2CCN(c3nc(-c4cccnc4)nc4ccccc34)CC2)cc1` gave rTrxR1 inhibitor -28.5%, ClpP mod -6.4% and TrxR1 substrate 3.4%.
Screening Cc1ccc(O)c(-c2n[nH]c3c2C(c2ccc(F)cc2)N(Cc2ccco2)C3=O)c1 (configuration not stated) returned rTrxR1 inhibitor -0.2%, miR-21 reporter 16.7%, ClpP mod -5.0%, Anesthetic bind -14.7% and TrxR1 substrate -4.8%.
Screening O=[N+]([O-])c1ccc(S(=O)(=O)CC(CN2CCCCC2)N2CCCCC2)cc1 (configuration not stated) returned rTrxR1 inhibitor 2.51µM*, miR-21 reporter 1.4%, ClpP mod 2.9%, Anesthetic bind -10.4% and TrxR1 substrate -5.8%.
NC(=O)/C(=N\OC(=O)c1ccco1)c1nc(-c2ccc(Br)cc2)cs1 was read as rTrxR1 inhibitor 7.08µM*, miR-21 reporter -15.0%, ClpP mod -5.0%, Anesthetic bind inconclusive and TrxR1 substrate 6.6%.
For CCCCn1c(N)c(N(CCOC)C(=O)CCCc2nc3ccccc3s2)c(=O)[nH]c1=O the results were rTrxR1 inhibitor 21.6%, ClpP mod 35.5µM* and TrxR1 substrate 2.2%.
For CCCCn1c(N)c(N(CC(C)C)C(=O)CCCc2nc3ccccc3s2)c(=O)[nH]c1=O the results were rTrxR1 inhibitor 5.2%, ClpP mod 7.08µM* and TrxR1 substrate 2.4%.
Screening COC(=O)CN(C(=O)CSc1nnc(-c2cccc(OC)c2)o1)c1ccc(OC)cc1 returned rTrxR1 inhibitor -8.1%, miR-21 reporter -11.5%, ClpP mod 15.8µM*, Anesthetic bind -7.9% and TrxR1 substrate -9.6%.
